Source: PubChem BioAssay AID1346378 (National Center for Advancing Translational Sciences (NCATS), 2018)
Only a part is listed here, and it is no random draw. The source made the active and inactive calls. No stated cut-off is given here; in the data, active means activity change below about -50%; inconclusive means mostly about -30% to -49%; inactive means weaker than that.

Protein sequences, listed by entry. Tags and fused reporters are not part of them.
UniProt Q9BTU6, whole entry: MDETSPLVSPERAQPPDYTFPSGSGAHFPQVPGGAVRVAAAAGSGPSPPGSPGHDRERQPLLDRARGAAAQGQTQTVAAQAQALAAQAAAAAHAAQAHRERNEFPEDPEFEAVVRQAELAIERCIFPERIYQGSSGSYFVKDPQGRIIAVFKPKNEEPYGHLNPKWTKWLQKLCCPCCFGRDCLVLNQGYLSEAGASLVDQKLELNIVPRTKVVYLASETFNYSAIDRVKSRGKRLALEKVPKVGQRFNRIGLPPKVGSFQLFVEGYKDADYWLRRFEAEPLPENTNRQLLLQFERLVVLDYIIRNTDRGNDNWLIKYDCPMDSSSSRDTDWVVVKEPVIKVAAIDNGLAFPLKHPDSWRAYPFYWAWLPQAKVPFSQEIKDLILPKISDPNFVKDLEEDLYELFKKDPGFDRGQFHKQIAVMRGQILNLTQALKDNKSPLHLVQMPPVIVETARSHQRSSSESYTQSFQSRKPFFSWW

Biological target: Phosphatidylinositol 4-kinase type 2-alpha (Homo sapiens) (UniProt Q9BTU6)
Test: qHTS for small molecular inhibitors of PI4K2A;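 on activity change, negative = inhibition: -100% = wells without enzyme as full effect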
Conditions: purified PI4K2A, ADP-Glo luminescence, 1 h; at 76.9 µM, active compounds read low
Text: The phosphatidylinositol 4-phosphate (PI4P) is emerging as a key regulator of lipid transfer in ER-membrane contact sites. The four different phosphatidylinositol 4-kinase (PI4K) enzymes generate PI4P in different membrane compartments supporting distinct cellular processes many of which are crucial for the maintenance of cellular integrity but also hijacked by intracellular pathogens. The goal of this screening project is to search for small molecular inhibitors of PI4K2A based on a high throughput screening strategy.The ADP-Glo assay was used as a starting point to develop a miniaturized version for HTS applications. To implement the HTS screen, the PI4K ADP-Glotrade mark Kinase assay (Promega, V9102) was miniaturized for the 1536-well format used at NCGC.
For the robotic screening, the ADP-Glo assay using the ADP-Glotrade mark Kinase Assay kit from Promega was miniaturized and optimized on 1536-well white solid bottom plates (Greiner Bio-one). The substrate, 1.2 mM PI, prepared in the assay buffer (40mM Tris pH7.5, 20mM MgCl2, 1mM EGTA, 0.4% Triton X-100, 0.5mM DTT, 0.5mg/ml BSA) and PI4K2A enzyme, diluted also in the assay buffer to 4ug/mL, were dispensed onto the plates in equal volumes (1microl/well), pinned with 23 nL/well tested compounds or control followed by dispensation of 1microl/well 300microM ATP. The plates were incubated for one hour. Then, 2 µL/well of ADP-Glo reagent was added and incubated for 40 minutes. Next, 4microL/well of Kinase Detection Buffer was added to the plates and incubated for additional 40 minutes. All incubation steps were performed at ambient temperature. The resulting luminescence signal was measured on Viewlux plate reader (PerkinElmer). Adenosine, a partial non-specific inhibitor, was used as a positive control at 100microM final concentration to assess the assay's quality and plate-to-plate reproducibility. We also used "no enzyme" control to gauge the assay's maximal potential inhibition (IC100).

**Q.** Which activity change, negative = inhibition does the source give for `CP(=S)(Nn1cnnc1)Oc1ccccc1` (centres undefined) here?
**A.** inactive: -1.21%

**Q.** How did the activity change, negative = inhibition turn out when `COc1ccccc1OP(C)(=O)Nc1ccccc1` (centres undefined) was run?
**A.** inactive: 3.2%

**Q.** For `CP(=O)(Nc1ccccc1Br)Oc1ccccc1` (centres undefined), which activity change, negative = inhibition is on record?
**A.** inactive: -1.17%

**Q.** How did the activity change, negative = inhibition turn out when `CP(=O)(Oc1ccccc1)OC(c1ccccc1)C(F)(F)F` (centres undefined) was run?
**A.** inactive: -6.35%

**Q.** `CP(=O)(Nc1ccc(SC(F)(F)F)cc1)Oc1ccc(Cl)cc1` (centres undefined) was tested. Which activity change, negative = inhibition did it give?
**A.** inactive: -0.16%

**Q.** For `Cc1cccc(C)c1OP(C)(=O)Nc1ccc(SC(F)(F)F)cc1` (centres undefined), which activity change, negative = inhibition is on record?
**A.** inactive: -7.25%

**Q.** Which activity change, negative = inhibition does the source give for `Cc1cc(C)cc(OP(C)(=O)Nc2ccc(SC(F)(F)F)cc2)c1` (centres undefined) here?
**A.** inactive: 2.45%

**Q.** Which activity change, negative = inhibition does the source give for `CCc1ccc(OP(C)(=O)N2CCN(c3ccc([N+](=O)[O-])cc3)CC2)cc1` (centres undefined) here?
**A.** inactive: -4.52%

**Q.** `CP(=O)(NC(=O)Nc1ccccc1)Oc1ccccc1` (centres undefined) was tested. Which activity change, negative = inhibition did it give?
**A.** inactive: -3.81%

**Q.** With `CCOP(C)(=S)SCC(=O)NC(C)C(=O)O` (centres undefined) as the molecule, how does the activity change, negative = inhibition read?
**A.** inactive: 4.03%

**Q.** `O=[N+]([O-])c1cc([N+](=O)[O-])c(O)c([N+](=O)[O-])c1.c1ccc(Oc2ccncc2)cc1` was tested. Which activity change, negative = inhibition did it give?
**A.** inactive: 1.3%

**Q.** `CCOC(=O)c1ccc(NP(C)(=O)Oc2ccc(OC)cc2)cc1` (centres undefined) was tested. Which activity change, negative = inhibition did it give?
**A.** inactive: 0.715%

**Q.** For `CP(=O)(Nc1ccccn1)Oc1ccc(Cl)cc1` (centres undefined), which activity change, negative = inhibition is on record?
**A.** inactive: 1.63%

**Q.** Which activity change, negative = inhibition does the source give for `CCN(CC)CCCOC(=O)C(O)(c1ccccc1)c1ccccc1` here?
**A.** inactive: -1.2%

**Q.** With `COc1ccccc1-c1ccccn1.O=[N+]([O-])c1cc([N+](=O)[O-])c(O)c([N+](=O)[O-])c1` as the molecule, how does the activity change, negative = inhibition read?
**A.** inactive: 8.52%

**Q.** Which activity change, negative = inhibition does the source give for `O=[N+]([O-])c1cc([N+](=O)[O-])c(Nc2cccnc2)c([N+](=O)[O-])c1` here?
**A.** inactive: -2.81%

**Q.** For `Cc1cccc(C)c1OP(C)(N)=O` (centres undefined), which activity change, negative = inhibition is on record?
**A.** inactive: 4.5%

**Q.** How did the activity change, negative = inhibition turn out when `CC(C)(C)c1ccc(OP(C)(=O)Nc2ccc(SC(F)(F)F)cc2)cc1` (centres undefined) was run?
**A.** inactive: -1.74%

**Q.** `O=[N+]([O-])c1ccc2c(c1)C=Nc1ccccc1O2` was tested. Which activity change, negative = inhibition did it give?
**A.** inactive: 0.904%

**Q.** Which activity change, negative = inhibition does the source give for `CCOC(=O)c1ccc(NP(C)(=O)Oc2ccccc2)cc1` (centres undefined) here?
**A.** inactive: 3.48%

**Q.** For `Cc1ccc(NP(C)(=O)Oc2ccccc2)c(C)c1` (centres undefined), which activity change, negative = inhibition is on record?
**A.** inactive: -1.58%

**Q.** `COc1ccccc1OP(C)(=O)Nc1ccc(C)cc1` (centres undefined) was tested. Which activity change, negative = inhibition did it give?
**A.** inactive: -2.97%

**Q.** Which activity change, negative = inhibition does the source give for `COc1ccc(OP(C)(=O)Nc2cccc(F)c2)cc1` (centres undefined) here?
**A.** inactive: 0.495%

**Q.** `COc1ccccc1OP(C)(=O)Nc1cc(Cl)ccc1C` (centres undefined) was tested. Which activity change, negative = inhibition did it give?
**A.** inactive: -4.78%

**Q.** For `Cc1cc(C)cc(OP(C)(N)=O)c1` (centres undefined), which activity change, negative = inhibition is on record?
**A.** inactive: 1.75%

**Q.** Which activity change, negative = inhibition does the source give for `O=[N+]([O-])c1cccc([N+](=O)[O-])c1` here?
**A.** inactive

**Q.** How did the activity change, negative = inhibition turn out when `CC1=NCCc2c1[nH]c1ccccc21.O=[N+]([O-])c1cc([N+](=O)[O-])c(O)c([N+](=O)[O-])c1` was run?
**A.** inactive: -3.4%

**Q.** Which activity change, negative = inhibition does the source give for `COc1ccccc1OP(C)(=O)Nc1cccc(Br)c1` (centres undefined) here?
**A.** inactive: 4.52%

**Q.** For `Cc1cc(C)cc(OP(C)(=O)Nc2ccc(C)cc2C)c1` (centres undefined), which activity change, negative = inhibition is on record?
**A.** inactive: -0.699%

**Q.** Which activity change, negative = inhibition does the source give for `CCOC(=O)c1ccc(NP(C)(=O)Oc2cc(C)cc(C)c2)cc1` (centres undefined) here?
**A.** inactive: 0.784%

**Q.** `CP(=O)(Nc1cccc(Br)c1)Oc1ccccc1` (centres undefined) was tested. Which activity change, negative = inhibition did it give?
**A.** inactive: -5.63%

**Q.** With `Cc1cc(C)cc(OP(C)(=O)Nc2ccccn2)c1` (centres undefined) as the molecule, how does the activity change, negative = inhibition read?
**A.** inactive: -0.47%

**Q.** Which activity change, negative = inhibition does the source give for `Cc1ccc(C)c(NP(C)(=O)Oc2ccccc2)c1` (centres undefined) here?
**A.** inactive: -4.5%

**Q.** Which activity change, negative = inhibition does the source give for `O=[N+]([O-])c1cc([N+](=O)[O-])c(-n2nnc3ccccc32)c([N+](=O)[O-])c1` here?
**A.** inactive: 0.0898%

**Q.** For `CN(Cc1cccnc1)C(=O)COc1ccc(Cl)c(Cl)c1.O=[N+]([O-])c1cc([N+](=O)[O-])c(O)c([N+](=O)[O-])c1`, which activity change, negative = inhibition is on record?
**A.** inactive: -4.21%

**Q.** For `O=[N+]([O-])c1cc([N+](=O)[O-])c(-c2cnn(-c3ccccc3)c2)c([N+](=O)[O-])c1`, which activity change, negative = inhibition is on record?
**A.** inactive: -10.7%

**Q.** `Cc1nc2ccc3ccccc3c2s1.O=[N+]([O-])c1cc([N+](=O)[O-])c(O)c([N+](=O)[O-])c1` was tested. Which activity change, negative = inhibition did it give?
**A.** inactive: -6.26%

**Q.** `O=[N+]([O-])c1cc([N+](=O)[O-])c(Nc2nnnn2CCO)c([N+](=O)[O-])c1` was tested. Which activity change, negative = inhibition did it give?
**A.** inactive: -7.82%

**Q.** `CC1=C2N=C(C=C3N=C(C(C)=C4[N-][C@@](C)([C@@H]5N=C1[C@](C)(CCC(=O)NC[C@@H](C)OP(=O)([O-])O[C@H]1[C@@H](O)[C@@H](n6cnc7cc(C)c(C)cc76)O[C@@H]1CO)[C@H]5CC(N)=O)[C@@](C)(CC(N)=O)[C@@H]4CCC(N)=O)[C@@](C)(CC(N)=O)[C@@H]3CCC(N)=O)C(C)(C)[C@@H]2CCC(N)=O.[C-]#N.[Co+3]` was tested. Which activity change, negative = inhibition did it give?
**A.** inactive: -24.6%

**Q.** For `CN1CCCCC1COC(=O)C1(O)c2ccccc2CCc2ccccc21` (centres undefined), which activity change, negative = inhibition is on record?
**A.** inactive: -5.53%

**Q.** Which activity change, negative = inhibition does the source give for `COc1ccccc1OP(C)(=O)Nc1c(C)cccc1C` (centres undefined) here?
**A.** inactive: -0.685%

**Q.** Which activity change, negative = inhibition does the source give for `CP(=O)(Nc1ccc(SC(F)(F)F)cc1)Oc1ccccc1` (centres undefined) here?
**A.** inactive: 5.33%

**Q.** With `CCCOc1ccc(NP(C)(=O)Oc2ccc(Cl)cc2)cc1` (centres undefined) as the molecule, how does the activity change, negative = inhibition read?
**A.** inactive: 3.09%

**Q.** `COc1ccc(OP(C)(=O)Nc2cccc(Br)c2)cc1` (centres undefined) was tested. Which activity change, negative = inhibition did it give?
**A.** inactive: 0.784%

**Q.** `COc1ccc(NP(C)(=O)Oc2ccccc2OC)cc1` (centres undefined) was tested. Which activity change, negative = inhibition did it give?
**A.** inactive: -3.27%

**Q.** How did the activity change, negative = inhibition turn out when `CN(C)CCOC(=O)C(O)(c1ccccc1)C1CCCCC1` (centres undefined) was run?
**A.** inactive: 5.5%

**Q.** `Cc1cc(-c2cccc3ccccc23)c(C)cn1.O=[N+]([O-])c1cc([N+](=O)[O-])c(O)c([N+](=O)[O-])c1` was tested. Which activity change, negative = inhibition did it give?
**A.** inactive: -0.156%

**Q.** `O=[N+]([O-])c1ccc(OP2(=O)COCCO2)cc1` (centres undefined) was tested. Which activity change, negative = inhibition did it give?
**A.** inactive: 1.37%

**Q.** With `Cc1c(C(c2ccc3c(c2)OCO3)c2c(C)n(C)n(-c3ccccc3)c2=O)c(=O)n(-c2ccccc2)n1C.O=[N+]([O-])c1cc([N+](=O)[O-])c(O)c([N+](=O)[O-])c1` as the molecule, how does the activity change, negative = inhibition read?
**A.** inactive: -2.06%

**Q.** With `CP(=O)(Nc1ccc(SC(F)(F)F)cc1)Oc1ccc(F)cc1` (centres undefined) as the molecule, how does the activity change, negative = inhibition read?
**A.** inactive: -2.46%

**Q.** For `CCOP(C)(=S)SCC(=O)NC(C)(CC)C(=O)O` (centres undefined), which activity change, negative = inhibition is on record?
**A.** inactive: 3.27%

**Q.** Which activity change, negative = inhibition does the source give for `CP(=O)(Nc1ccc2c(c1)OCCO2)Oc1ccccc1` (centres undefined) here?
**A.** inactive: 2.49%

**Q.** `O=[N+]([O-])c1cc([N+](=O)[O-])c(C(F)(F)F)c([N+](=O)[O-])c1O` was tested. Which activity change, negative = inhibition did it give?
**A.** inactive: -4.53%

**Q.** How did the activity change, negative = inhibition turn out when `Cc1ccccc1NP(C)(=O)Nc1ccccc1C` was run?
**A.** inactive: 1.34%
